In ChEMBL document CHEMBL1955812, “New chemotypes acting as isozyme-selective carbonic anhydrase inhibitors with low affinity for the offtarget cytosolic isoform II” (Bioorg Med Chem Lett, 2012):

How the values were obtained:
Carbonic anhydrase 12 = Carbonic anhydrase 12 (Homo sapiens, UniProt O43570); assay: Inhibition of human recombinant carbonic anhydrase 12 preincubated for 15 mins to 72 hrs measured after 6 hrs by stopped flow CO2 hydration method
Carbonic anhydrase 9 = Carbonic anhydrase 9 (Homo sapiens, UniProt Q16790); assay: Inhibition of human recombinant carbonic anhydrase 9 preincubated for 15 mins to 72 hrs measured after 6 hrs by stopped flow CO2 hydration method
[1] = molecular target: Carbonic anhydrase 5A, mitochondrial (Homo sapiens, UniProt P35218); assay: Inhibition of human recombinant carbonic anhydrase 5A preincubated for 15 mins to 72 hrs measured after 6 hrs by stopped flow CO2 hydration method

Measured: Ki

O=c1ccc2ccccc2o1 [COUMARIN]
> 200 µM: all assays above
